The values below are quoted from earlier work in paper PMC10892142, “Synthesis and In Vitro Antitumor Activity Evaluation of Gefitinib-1,2,3-Triazole Derivatives” (Molecules, 2024).

Molecules are shown by their SMILES.

The series concerns advanced NSCLC with EGFR mutations. Set-up: method as in PMID 17047648. The following applies: 16 patients, first-line treatment; cited from earlier work.

As for `COc1cc2ncnc(Nc3ccc(F)c(Cl)c3)c2cc1OCCCN1CCOCC1` [Gefitinib, gefitinib], the response rate was 75%.
